Test results from paper PMC6062600, “A Novel Iron Transporter SPD_1590 in Streptococcus pneumoniae Contributing to Bacterial Virulence Properties” (Frontiers in Microbiology, 2018).

Molecular target: SPD_1590 (Streptococcus pneumoniae, UniProt A0A0H2ZNN3)
Experiment: biochemical

## C=CC1=C(C)C2=Cc3c(C=C)c(C)c4[n]3[Fe]([Cl])[n]3c(c(C)c(CCC(=O)O)c3=CC3=NC(=C4)C(C)=C3CCC(=O)O)=CC1=N2 [hemin]
  Kd: 2410 nM
